Our source for the IC50 values is patent US9988343B2, “Inhibitors of histone deacetylase” (Dana-Farber Cancer Institute, Inc., priority 2013, dated 2018).

The chains behind the UniProt entries cited, without tags or fusion partners.
UniProt Q13547, whole entry: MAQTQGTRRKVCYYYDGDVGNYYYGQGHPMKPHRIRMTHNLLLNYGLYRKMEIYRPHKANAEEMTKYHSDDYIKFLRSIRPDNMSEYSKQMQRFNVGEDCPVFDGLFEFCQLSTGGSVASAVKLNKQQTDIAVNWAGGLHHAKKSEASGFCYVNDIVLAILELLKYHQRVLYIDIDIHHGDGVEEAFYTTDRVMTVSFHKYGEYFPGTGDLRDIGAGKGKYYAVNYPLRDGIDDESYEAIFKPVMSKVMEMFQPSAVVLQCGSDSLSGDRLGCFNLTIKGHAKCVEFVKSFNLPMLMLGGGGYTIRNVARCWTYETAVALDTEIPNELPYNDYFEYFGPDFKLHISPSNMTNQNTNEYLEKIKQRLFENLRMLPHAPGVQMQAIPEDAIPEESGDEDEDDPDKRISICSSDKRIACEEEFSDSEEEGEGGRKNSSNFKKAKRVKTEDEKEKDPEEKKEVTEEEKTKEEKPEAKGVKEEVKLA

The experiment addresses HDAC1 (Homo sapiens, UniProt Q13547). Kind of experiment: HDAC1 inhibitory activity (IC50). The format is biochemical. As to conditions: Table 2.

As usually defined, the IC50 is the midpoint of a concentration-inhibition curve. A high value points to weaker potency. `Nc1ccccc1NC(=O)c1ccccn1` [Compound 3] returned an IC50 of 1.52 µM.
